# Laboratory results published in article PMC6332354, “Synthesis, Biological Evaluation and Molecular Docking Studies of Piperidinylpiperidines and Spirochromanones Possessing Quinoline Moieties as Acetyl-CoA Carboxylase Inhibitors” (Molecules, 2015).
# Target: T1, rat ACC1 (Rattus norvegicus, UniProt P11497)
# T1 construct: purchased Huawei Pharmaceutical Co. Ltd (Shanghai, China)
# Assay: ACC1 in vitro assay (Kinase-Glo Plus luminescence)
# Type: biochemical
# Settings: arithmetic means of three experiments, standard deviation in parentheses
# Protocol: To investigate the biological activities of the synthesized compounds, the in vitro inhibitory activities of these compounds against both rat ACC1 and ACC2 were evaluated according to the previous experimental method with some changes. The ACC1 and ACC2 enzymes were supplied by Huawei Pharmaceutical Co. Ltd (Shanghai, China). The compound CP-640186 was supplied by Selleck Chemicals Co. Ltd. (Houston, TX, USA) Briefly, the test compounds were diluted in 10% DMSO at 10 μM. Then, the solution was diluted with buffer solution until it reached the required concentration (1 nM to 10 μM) and 5μL of the dilution was added to a 50 μL reaction mixture containing 30 mM HEPES, pH 7.4, 2 mM MgCl2, 2 mM sodium citrate, 1 mM DTT, 25 μM ATP, 16 mM NaHCO3 and 15 μM acetyl-CoA. All of the enzymatic reactions were conducted at 30 °C for 60 min. The assay was performed using Kinase-Glo Plus luminescence kinase assay kit (Beijing, China), which measures kinase activity by quantifying the amount of ATP remaining in solution following a kinase reaction. The luminescent signal from the assay […] with the amount of kinase activity. The same concentrations of DMSO were tested in parallel and used as background control. The inhibition percentage was expressed as the average value from three independent experiments. […]
structure (smiles),measurement,value
"O=C(c1c2ccccc2cc2ccccc12)N1CCC(N2CCC[C@@H](C(=O)N3CCOCC3)C2)CC1 [CP-640186, reference compound]",IC50,173 nM
